Results taken from patent publication US20200241008.

System: indicator molecule containing the cleavable sequence (GPQGIFGQ) with a terminal biotin group connected via a polyethylene glycol spacer/linker, intact

Work on MMP13 (Enzo) yielded a reader value at 0.5 µg/ml MMP (lateral flow) of 6350 reader units.
